Values quoted from earlier work in US20200390909A1, “DRUG FRAGMENT IMAGING AGENT CONJUGATES” (The Board of Trustees of the Leland Stanford Junior …, priority 2018, published 2020).

Settings: systemically administered, clinical optical contrast agent; cited from earlier work

Q: For “IRdye800CW-labeled cetuximab: clinically-approved, systemically-administered optical contrast agent”, which TBR is on record?
A: 5.2
